Test results reported in paper PMC11997059, “Drugit: crowd-sourcing molecular design of non-peptidic VHL binders” (Nature Communications, 2025).
In brackets after ≈: the same amount, converted by molar mass.

Experiment: NMR detected solubility in NMR buffer
Conditions: 500 µM target; 20 mM TRIS, 100 mM NaCl, pH 7.5 in D2O; 1H NMR vs maleic acid

Compound	Solubility in NMR buffer [µM]
Cc1ncsc1-c1ccc(CNc2cc(Br)c[nH]c2=O)cc1	30.0 (≈ 11.3 µg/mL)
Cc1ncsc1-c1ccc(CNC(=O)[C@H]2C[C@@H](O)CN(c3ccccn3)C2)cc1	90.0 (≈ 36.8 µg/mL)

The remaining lines, values ahead:

Solubility in NMR buffer [µM]	Compound
140.0 (≈ 57.2 µg/mL)	Cc1ncsc1-c1ccc(CNC(=O)[C@@H]2C[C@H](O)CN(c3ccccn3)C2)cc1
20.0 (≈ 7.47 µg/mL)	Cc1ncsc1-c1ccc(CNc2cc(-c3ccccc3)c[nH]c2=O)cc1
20.0 (≈ 6.75 µg/mL)	C=C(C)c1c[nH]c(=O)c(NCc2ccc(-c3scnc3C)cc2)c1
